Measurements taken from PubChem BioAssay AID1645856 (Buhrlage Lab, Dana-Farber Cancer Institute and Novartis …, 2021).
This is a selection; strong and weak results do not stand in their true shares. Active and inactive are the calls of the source. No stated cut-off is given here; in the data, active means inhibition above about 30%; inactive means the rest.

By UniProt entry, the sequences of proteins in these tests, tags left out.
UniProt Q14694, whole entry, looked up: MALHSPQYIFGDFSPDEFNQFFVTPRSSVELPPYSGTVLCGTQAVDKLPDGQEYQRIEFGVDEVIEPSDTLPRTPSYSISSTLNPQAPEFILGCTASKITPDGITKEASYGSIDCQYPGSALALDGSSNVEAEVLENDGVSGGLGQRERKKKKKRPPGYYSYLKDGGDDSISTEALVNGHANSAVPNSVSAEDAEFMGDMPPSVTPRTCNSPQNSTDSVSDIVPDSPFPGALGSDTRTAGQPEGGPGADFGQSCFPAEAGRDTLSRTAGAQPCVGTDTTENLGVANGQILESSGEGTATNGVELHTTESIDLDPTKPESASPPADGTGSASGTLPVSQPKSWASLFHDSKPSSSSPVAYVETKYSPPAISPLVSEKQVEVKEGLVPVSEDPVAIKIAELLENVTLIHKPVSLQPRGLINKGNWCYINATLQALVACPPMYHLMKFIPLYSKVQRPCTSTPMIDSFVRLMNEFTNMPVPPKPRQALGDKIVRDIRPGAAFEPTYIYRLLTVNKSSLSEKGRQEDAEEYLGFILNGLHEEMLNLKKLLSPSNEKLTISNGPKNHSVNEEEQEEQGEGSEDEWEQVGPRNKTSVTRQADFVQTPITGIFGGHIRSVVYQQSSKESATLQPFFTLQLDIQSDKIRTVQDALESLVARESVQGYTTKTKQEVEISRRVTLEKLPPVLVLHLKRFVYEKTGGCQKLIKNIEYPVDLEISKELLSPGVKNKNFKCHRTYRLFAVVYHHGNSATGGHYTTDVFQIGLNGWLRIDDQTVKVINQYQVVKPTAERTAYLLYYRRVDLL

These compounds were tested against Ubiquitin carboxyl-terminal hydrolase 10 (Homo sapiens) (UniProt Q14694) (assay: inhibitors of human USP10 deubiquitinase (AID 1645856)). Details: purified USP10, Ub-rhodamine fluorescence, 60 min; at 20 µM; hits give high values.
With `N#Cc1cccc(C(=O)N(Cc2ccco2)C2CCN(CCc3ccc(Cl)cc3)CC2)c1` the inhibition was inactive: -2.17%. With `Cc1[nH]c2c(N(C(=O)Nc3ccccc3)C3CCN(Cc4ccccc4)CC3)cccc2c1C` the inhibition was inactive: -7.1%. `COc1ccc(CCN2CCC(N(Cc3cccnc3)C(=O)c3cccc(C#N)c3)CC2)cc1` was tested, and the inhibition was inactive: -4.7%. For `O=C(c1ccc2c(c1)OCO2)N(Cc1ccco1)C1CCN(CCc2ccccn2)CC1`, the inhibition was inactive: -4.02%. For `O=C(COC(=O)C(O)(c1ccccc1)c1ccccc1)NCc1ccc2c(c1)OCO2`, the inhibition was inactive: -3.44%. `CS(=O)(=O)c1ccc(C(=O)N(Cc2ccco2)C2CCN(CCc3ccccn3)CC2)cc1` was tested, and the inhibition was inactive: -14.1%. `N#Cc1cccc(C(=O)N(Cc2cccnc2)C2CCN(CCc3ccccn3)CC2)c1` was tested, and the inhibition was inactive: -7.76%. With `CS(=O)(=O)c1ccc(C(=O)N(Cc2cccnc2)C2CCN(CCc3ccc(Cl)cc3)CC2)cc1` the inhibition was inactive: -2.57%. For `COc1ccc(CCN2CCC(N(Cc3ccco3)C(=O)c3ccc(S(C)(=O)=O)cc3)CC2)cc1`, the inhibition was inactive: -4.26%. With `CN1C(=O)C2C(NC(=NCc3ccco3)N2CCc2ccccc2)N(C)C1=O` (stereo unspecified) the inhibition was inactive: -4.81%. With `N#Cc1cccc(C(=O)N(Cc2ccco2)C2CCN(CCc3ccccn3)CC2)c1` the inhibition was inactive: -2.56%.
